Several values for one entry are separate records, joined by “and”; a condition that tells them apart may be missing. Equal entries are not always repeated. This is a selection; strong and weak results do not stand in their true shares.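 Activity criterion: percent growth below 10, measured after cells in 96-well plates were exposed to a single compound concentration for 48 hours.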 Activity calls are given as the source filed them.
How the values were obtained:
Assay in all cases: NCI-60 one-dose screen, 48 h (100 = growth as untreated, 0 = no growth, -100 = all killed)
HCT-15 colon = conditions: 10 µM unless noted
HT29 colon = conditions: 10 µM unless noted
SNB-75 CNS = conditions: 10 µM unless noted
SNB-19 CNS = conditions: 10 µM unless noted
U251 CNS = conditions: 10 µM unless noted
PC-3 prostate = conditions: 10 µM unless noted
SK-MEL-5 melanoma = conditions: 10 µM unless noted
UACC-62 melanoma = conditions: 10 µM unless noted
LOX IMVI melanoma = conditions: 10 µM
SK-MEL-28 melanoma = conditions: 10 µM unless noted

Measured: growth

O=[N+]([O-])N=C1NCCN1
inactive: HCT-15 colon 99.5% and 102% | HT29 colon 107% and 99.2% | SNB-75 CNS 123% and 100% | SNB-19 CNS 117% and 106% | U251 CNS 101% and 97.5% | PC-3 prostate 102% and 91.4% | SK-MEL-5 melanoma 115% and 99.1% | UACC-62 melanoma 124% and 102% | LOX IMVI melanoma 103% and 101% | SK-MEL-28 melanoma 128% and 117%

CCCC1OP(N)(=O)OCC1CC (stereo not given)
inactive: HCT-15 colon 109% and 105% | HT29 colon 109% and 94.3% | SNB-75 CNS 115% and 93.5% | SNB-19 CNS 101% and 97.4% | U251 CNS 109% and 102% | PC-3 prostate 94.8% and 94.6% | SK-MEL-5 melanoma 100% and 97% | UACC-62 melanoma 95% and 97.6% | LOX IMVI melanoma 103% and 104% | SK-MEL-28 melanoma 124% and 108%

O=C(c1ccc(F)cc1)N(CCCl)CCCl
inactive: HCT-15 colon 103% | HT29 colon 98.3% | SNB-75 CNS 84% | SNB-19 CNS 101% | U251 CNS 101% | PC-3 prostate 95.6% | SK-MEL-5 melanoma 96.8% | UACC-62 melanoma 104% | LOX IMVI melanoma 104% | SK-MEL-28 melanoma 102%

Cc1cccc(Nc2c([N+](=O)[O-])cc([N+](=O)[O-])cc2[N+](=O)[O-])c1
inactive: HCT-15 colon 80.1% | HT29 colon 76.1% | SNB-75 CNS 86.6% | SNB-19 CNS 103% | U251 CNS 87.6% | PC-3 prostate 77.2% | SK-MEL-5 melanoma 93.8% | UACC-62 melanoma 71.5% | LOX IMVI melanoma 70.6% | SK-MEL-28 melanoma 107%

O=P(O)(NCCCO)N(CCCl)CCCl
inactive: HCT-15 colon 95.5% | HT29 colon 110% | SNB-75 CNS 69.9% | SNB-19 CNS 92.1% | U251 CNS 87.8% | PC-3 prostate 120% | SK-MEL-5 melanoma 106% | UACC-62 melanoma 95.4% | LOX IMVI melanoma 103% | SK-MEL-28 melanoma 116%

N#CC(C#N)=C(C#N)N(CCCl)CCCl
inactive: HCT-15 colon 106% | HT29 colon 110% | SNB-75 CNS 110% | SNB-19 CNS 99.4% | U251 CNS 100% | PC-3 prostate 98.6% | SK-MEL-5 melanoma 105% | UACC-62 melanoma 91.2% | LOX IMVI melanoma 88.4% | SK-MEL-28 melanoma 106%

Cn1c(=O)c2[nH]c(N(CCCl)CCCl)nc2n(C)c1=O
inactive: HCT-15 colon 97.3% | HT29 colon 94.8% | SNB-75 CNS 76.9% | SNB-19 CNS 116% | U251 CNS 102% | PC-3 prostate 94% | SK-MEL-5 melanoma 102% | UACC-62 melanoma 104% | LOX IMVI melanoma 96.4% | SK-MEL-28 melanoma 109%

CN(CCCl)CCC(=O)c1ccccc1
inactive: HCT-15 colon 97.9% | HT29 colon 98.2% | SNB-75 CNS 90.5% | SNB-19 CNS 105% | U251 CNS 107% | PC-3 prostate 115% | SK-MEL-5 melanoma 98.4% | UACC-62 melanoma 100% | LOX IMVI melanoma 98.6% | SK-MEL-28 melanoma 96.9%

CC(C)=N/N=C(\N)N[N+](=O)[O-]
inactive: HCT-15 colon 107% | HT29 colon 103% | SNB-75 CNS 93.4% | SNB-19 CNS 112% | U251 CNS 97.4% | PC-3 prostate 96.5% | SK-MEL-5 melanoma 107% | UACC-62 melanoma 116% | LOX IMVI melanoma 97.9% | SK-MEL-28 melanoma 119%

CC(C)c1nc(Nc2ccccc2)n(P(=O)(N(C)C)N(C)C)n1
inactive: HCT-15 colon 97.9% | HT29 colon 98.9% | SNB-75 CNS 100% | SNB-19 CNS 106% | U251 CNS 98.7% | PC-3 prostate 101% | SK-MEL-5 melanoma 102% | UACC-62 melanoma 105% | LOX IMVI melanoma 108% | SK-MEL-28 melanoma 109%

ClCCN1CCNCC1
inactive: HCT-15 colon 98.9% | HT29 colon 102% | SNB-75 CNS 96.4% | SNB-19 CNS 97.5% | U251 CNS 96% | PC-3 prostate 109% | SK-MEL-5 melanoma 101% | UACC-62 melanoma 97.2% | LOX IMVI melanoma 98.7% | SK-MEL-28 melanoma 106%

ClCCN1Cc2ccccc2C1
inactive: HCT-15 colon 100% | HT29 colon 98.3% | SNB-75 CNS 78.8% | SNB-19 CNS 96.9% | U251 CNS 95.1% | PC-3 prostate 90.5% | SK-MEL-5 melanoma 95.2% | UACC-62 melanoma 85.1% | LOX IMVI melanoma 99.8% | SK-MEL-28 melanoma 97.9%

CCCCOP(=O)(OCCCC)N1CCCC1C(=O)O (stereo not given)
inactive: HCT-15 colon 106% | HT29 colon 89.5% | SNB-75 CNS 90.9% | SNB-19 CNS 101% | U251 CNS 91.2% | PC-3 prostate 89.8% | SK-MEL-5 melanoma 99.8% | UACC-62 melanoma 101% | LOX IMVI melanoma 96.5% | SK-MEL-28 melanoma 108%

O=[As](O)(c1cccc(O)c1)c1cccc(O)c1
inactive: HCT-15 colon 88.9% | HT29 colon 105% | SNB-75 CNS 102% | SNB-19 CNS 99% | U251 CNS 98.1% | PC-3 prostate 101% | SK-MEL-5 melanoma 107% | UACC-62 melanoma 98% | LOX IMVI melanoma 99.4% | SK-MEL-28 melanoma 102%

CC(C)OP(=S)(Cl)OC(C)C
inactive: HCT-15 colon 107% | HT29 colon 101% | SNB-75 CNS 83.2% | SNB-19 CNS 106% | U251 CNS 104% | PC-3 prostate 97.4% | SK-MEL-5 melanoma 111% | UACC-62 melanoma 118% | LOX IMVI melanoma 103% | SK-MEL-28 melanoma 105%

Cc1ccc(NCCCl)c2c(=O)c3ccccc3sc12
inactive: HCT-15 colon 88.8% | HT29 colon 95.5% | SNB-75 CNS 95% | SNB-19 CNS 96.5% | U251 CNS 94.9% | PC-3 prostate 104% | SK-MEL-5 melanoma 101% | UACC-62 melanoma 87.2% | LOX IMVI melanoma 96% | SK-MEL-28 melanoma 106%

O=[As](O)(c1ccccc1Br)c1ccccc1Br
inactive: HCT-15 colon 99.2% | HT29 colon 111% | SNB-75 CNS 101% | SNB-19 CNS 95.1% | U251 CNS 111% | PC-3 prostate 89.5% | SK-MEL-5 melanoma 105% | UACC-62 melanoma 99.4% | LOX IMVI melanoma 94% | SK-MEL-28 melanoma 120%

OP1OCCO1
inactive: HCT-15 colon 111% | HT29 colon 104% | SNB-75 CNS 85.2% | SNB-19 CNS 106% | U251 CNS 105% | PC-3 prostate 91.3% | SK-MEL-5 melanoma 106% | UACC-62 melanoma 101% | LOX IMVI melanoma 105% | SK-MEL-28 melanoma 110%

— PubChem BioAssay (NCI)
